Measurements: patent publication US20180008569A1, “PROSTAGLANDIN TRANSPORTER INHIBITORS FOR INHIBITING OVULATION” (TEL HASHOMER MEDICAL RESEARCH INFRASTRUCTURE AND SERVICES …, priority 2015, published 2018)

Amino acid sequences for entries named in this document (tags omitted).
UniProt Q9EPT5, whole entry: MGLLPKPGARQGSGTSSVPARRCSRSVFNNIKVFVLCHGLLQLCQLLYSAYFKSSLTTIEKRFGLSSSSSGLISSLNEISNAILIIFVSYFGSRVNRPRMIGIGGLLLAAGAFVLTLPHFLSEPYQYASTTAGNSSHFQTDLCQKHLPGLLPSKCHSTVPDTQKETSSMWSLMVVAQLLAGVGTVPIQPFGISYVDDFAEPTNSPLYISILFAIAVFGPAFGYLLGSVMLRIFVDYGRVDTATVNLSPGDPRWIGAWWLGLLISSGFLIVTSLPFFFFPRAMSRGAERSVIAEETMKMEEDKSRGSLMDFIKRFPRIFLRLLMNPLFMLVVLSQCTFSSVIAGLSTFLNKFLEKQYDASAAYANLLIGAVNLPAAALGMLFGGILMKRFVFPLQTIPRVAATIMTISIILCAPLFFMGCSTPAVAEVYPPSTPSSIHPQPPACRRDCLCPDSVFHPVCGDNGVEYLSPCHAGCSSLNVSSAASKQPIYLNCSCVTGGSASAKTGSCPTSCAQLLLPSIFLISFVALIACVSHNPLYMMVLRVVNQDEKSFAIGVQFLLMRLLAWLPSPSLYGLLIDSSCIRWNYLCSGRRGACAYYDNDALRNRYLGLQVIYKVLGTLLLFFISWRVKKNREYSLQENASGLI

Molecular target: PGT (Mus musculus, UniProt Q9EPT5)
Experiment: Ovarian morphology (histology) in superovulated mice
Conditions: hCG+DIDS, twelve hours after hCG

Q: For `O=S(=O)(O)c1cc(N=C=S)ccc1C=Cc1ccc(N=C=S)cc1S(=O)(=O)O` [DIDS, 4,4′-Diisothiocyanatostilbene-2,2′-disulfonic acid], which ovarian morphology is on record?
A: unruptured preovulatory follicles replete with intact MGCs and thick multi-layered follicular walls
